Measured values taken from article PMC5556019, “Targeting Apolipoprotein E/Amyloid β Binding by Peptoid CPO_Aβ17-21 P Ameliorates Alzheimer’s Disease Related Pathology and Cognitive Decline” (Scientific Reports, 2017).

Tested on: SK-N-SH human neuroblastoma cells
Assay: Toxicity rescue: apoE4-enhanced cytotoxicity of oligomeric Aβ42
Conditions: Aβ42 10 µM, apoE4 1 µM pre-incubated 6 hrs with inhibitor (Aβ12-28 P 4 µM; CPO_Aβ17-21 P 1 or 4 µM), three days

SMILES: CC(=O)N[C@@H](C(=O)N[C@H](Cc1c[nH]cn1)C(=O)N[C@H](Cc1c[nH]cn1)C(=O)N[C@H](CCC(N)=O)C(=O)N[C@H](CCCCN)C(=O)N[C@H](CC(C)C)C(=O)N1CCC[C@@H]1C(=O)N[C@H](Cc1ccccc1)C(=O)N[C@H](Cc1ccccc1)C(=O)N[C@H](C)C(=O)N[C@H](CCC(=O)O)C(=O)N[C@H](CC(=O)O)C(=O)N[C@@H](C(=O)NCC(=O)N[C@H](CO)C(=O)N[C@H](CC(N)=O)C(=O)N[C@H](CCCCN)C(N)=O)C(C)C)C(C)C
- neutralization of apoE4-enhanced cytotoxicity of Aβ42: neutralized
